Measurements taken from ChEMBL document CHEMBL1144006, “Phenylalanine-containing hydroxamic acids as selective inhibitors of class IIb histone deacetylases (HDACs)” (Bioorg Med Chem, 2008).

Biological target: T1, Protein deacetylase HDAC6 (Homo sapiens, UniProt Q9UBN7)
T1 sequence (Q9UBN7 whole entry): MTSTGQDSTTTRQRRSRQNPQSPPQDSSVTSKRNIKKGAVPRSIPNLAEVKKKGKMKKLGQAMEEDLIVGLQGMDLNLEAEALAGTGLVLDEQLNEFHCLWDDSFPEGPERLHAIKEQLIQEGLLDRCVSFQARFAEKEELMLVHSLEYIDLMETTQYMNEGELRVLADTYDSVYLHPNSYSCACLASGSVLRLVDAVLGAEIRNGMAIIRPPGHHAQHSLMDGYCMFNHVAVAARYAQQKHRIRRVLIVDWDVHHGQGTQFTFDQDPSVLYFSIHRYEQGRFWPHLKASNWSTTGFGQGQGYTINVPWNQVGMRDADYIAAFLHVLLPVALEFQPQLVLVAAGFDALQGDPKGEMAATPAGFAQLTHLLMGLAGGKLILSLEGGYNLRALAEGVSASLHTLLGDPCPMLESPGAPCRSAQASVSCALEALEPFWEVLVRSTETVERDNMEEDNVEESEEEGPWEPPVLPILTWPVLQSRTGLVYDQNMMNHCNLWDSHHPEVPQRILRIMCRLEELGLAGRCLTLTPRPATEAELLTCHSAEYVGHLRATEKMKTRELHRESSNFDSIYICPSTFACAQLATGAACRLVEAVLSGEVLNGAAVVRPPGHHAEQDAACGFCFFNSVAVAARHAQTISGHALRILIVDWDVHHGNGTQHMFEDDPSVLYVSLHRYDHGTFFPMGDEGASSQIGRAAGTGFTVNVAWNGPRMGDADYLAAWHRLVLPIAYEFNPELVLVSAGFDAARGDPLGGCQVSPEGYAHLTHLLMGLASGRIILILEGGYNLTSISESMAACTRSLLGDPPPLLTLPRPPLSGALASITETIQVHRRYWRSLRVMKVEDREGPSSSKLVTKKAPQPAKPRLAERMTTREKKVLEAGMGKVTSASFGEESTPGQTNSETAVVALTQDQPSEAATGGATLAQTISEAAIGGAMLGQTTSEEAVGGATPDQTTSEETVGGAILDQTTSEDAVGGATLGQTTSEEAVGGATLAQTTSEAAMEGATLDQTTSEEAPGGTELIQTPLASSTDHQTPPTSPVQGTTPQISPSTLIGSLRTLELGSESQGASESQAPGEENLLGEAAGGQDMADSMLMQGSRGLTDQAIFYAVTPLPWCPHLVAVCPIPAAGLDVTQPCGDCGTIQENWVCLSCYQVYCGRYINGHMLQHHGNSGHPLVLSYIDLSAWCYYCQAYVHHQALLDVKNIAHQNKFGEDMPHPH
Experiment: Inhibition of FLAG-tagged HDAC6 expressed in human 293T cells
Assay type: cell-based
Outline: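 FLAG-HDAC1 or FLAG-HDAC6 was immunoprecipitated with M2 agarose from lysates of overexpressing 293T cells, washed in enzyme buffer and diluted 1:10. Bead suspension, inhibitor and unselective fluorogenic substrate ZMAL were incubated at 37 C for 180 min. The reaction was stopped with TSA/borate pH 9.5/NDA and read at ex 330/em 390 nm. IC50 came from a dilution series against 0% and 100% (TSA) inhibition standards. Selectivity is the ratio of HDAC1 to HDAC6 IC50.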

- IC50: 1690 nM
Structure (SMILES): COC(=O)[C@H](Cc1ccc(Br)cc1)NC(=O)CCCCCCC(=O)NO
